Assay [1] relates to CD34+ stem cells (HSCs). Description: Control and AMR-expressing HSC exposed to CAR-T cells in vitro. The assay is classed as cell-based, human. Particulars: AMR expressing HSCs. An excerpt: G-CSF mobilized peripheral blood stem cells and bone marrow stem cells are obtained from University of Southern California. CD34+ stem cells are selected by purification using magnetic beads. AMR targeting CD33 (SEQ ID NO: 1749), CD123 (SEQ ID NO: 1763), MPL (SEQ ID NO: 1846), FLT3 (SEQ ID NO: 1810) and BST1 (SEQ ID NO: 1908) are expressed in the CD34+ stem cell using lentiviral mediated gene transfer according to methods known in the art. […] The control and AMR-expressing HSC are exposed to different T cells expressing CAR (e.g., 2nd generation CAR, TFP, SIR and Ab-TCR) targeting the corresponding antigens.
Similarly, expressing of AMR targeting MPL, CD123, BST1 and FLT3 in HSC are shown to protect them against killing by CAR-T cells targeting MPL, CD123, BST1 and FLT3, respectively. The protective effect is also observed in vivo.

Assay [2] concerns human CD34+ cells. Description: Engraftment of control or CD33-AMR HSCs in NSG mice. The assay is classed as in vivo. The settings on record: twelve weeks after injection. Here is the method: More detailed functional evaluation of AMR HSCs is performed in comparison with control HSC in vivo. NSG mice are engrafted with either control or CD33-AMR HSCs. […] The CD33-AMR HSCs differentiated into mature myeloid cells (neutrophils and macrophages). Cell morphology is analyzed by cytospin and characteristic cell surface markers (CD1 lb, CD 15, CD 14, CD 16, CD45, CD66b, and HLA-DR) by flow cytometry.
CD33-AMR human CD34+ cells are capable of long-term multi-lineage engraftment. Primary human CD34+ cells are derived from G-CSF mobilized peripheral blood and lead to equivalent number and morphology of hematopoietic myeloid and erythroid colonies. 8-12 week old NSG mice are injected with either control or CD33-AMR CD34+ cells. Twelve weeks later, the percentage of hCD45 in peripheral blood (engraftment) is measured. […] Bone marrow is harvested from NSG mice after 16 weeks of primary engraftment then transferred into secondary recipients and analyzed after 12 additional weeks. Sustained human engraftment with persistent CD33-low phenotype is observed. In the bone marrow, no difference in total human engraftment between the CD33-AMR or CD33WT groups is observed, with differentiation into lymphoid and myeloid lineages, with the exception of decreased CD33 expression. […]

Assay [3] relates to human myeloid cells. The experiment in a line: NSG mice engrafted with control or CD33-AMR HSPCs given autologous CD33 CAR-T cells. The assay is classed as in vivo. Here is the method: NSG mice engrafted with control or CD33-AMR HSPCs are given autologous CD33 CAR-T cells, and residual human myeloid cells are assessed after 4 weeks. […] Myeloid cells are detected in the peripheral blood, spleen, and bone marrow of the CD33-AMR HSPC-engrafted mice after CD33 CAR-T treatment, in contrast to the myeloablation seen in control HSPC-engrafted mice.

The subject of assay [4] is CD19 on RAJI (CD19+) cells. Description: CD19 surface expression on transduced RAJI cells, flow cytometry with PE-conjugated FMC63 antibody (antigen masking). The assay is classed as cell-based. The settings on record: Example 14, puromycin selected. An excerpt:
A panel of CARs targeting CD19 were generated using antigen binding domains derived from FMC63 (SEQ ID NO: 205), hu-mROO5-1 (SEQ ID NO: 211) and CD19-MM (SEQ ID NO: 209) scFVs respectively. The CARs were generated on 2nd generation CAR backbone with 41BB costimulatory domain (SEQ ID NO: 12228, 12230 and 12234) double chain SIR (SEQ ID NO: 12229 and 12233), TFPε (SEQ ID NO: 12231 and 12235) and TFPδ (SEQ ID NO: 12232 and 12236) backbones. The constructs also co-expressed a puromycin resistance gene (PAC). The lentiviral vectors encoding the different CAR constructs were used to infect RAJI (CD19+) cells. The cells were selected with puromycin. Flow cytometry with PE-conjugated FMC63 antibody was used to detect the expression of CD19 on the surface of the CAR-expressing cells. […] In contrast, there was no decrease in binding of FMC63 to RAJI cells transducted with FMC63 and hu-mROO5-1 based SIRs (SEQ ID NO: 12229 and 12233). […]
In another exemplary experiment, the experiment is repeated with lentiviral vectors encoding FMC63- or hum-mROO5-1-based cTCR, Ab-TCR, TFPαβ and TFPγδ. No decrease in the cell surface expression of CD19, as measured by binding of PE-conjugated FMC63, is observed in RAJI cells transduced with lentiviral vectors encoding cTCR, Ab-TCR, TFPαβ and TFPγδ comprising antigen binding domains based on FMC63 scFV (SEQ ID NO: 205) and hu-mROO5-1 scFv (SEQ ID NO: 211). […]
In general terms: Flow cytometry measures light scatter and fluorescence of single cells or particles in a stream.

The nature of assay [5]: Patient with cytokine release syndrome and neurological complications after haploidentical stem cell transplant. It counts as in vivo, human. The settings on record: 900 mg intravenously on day 6 after stem cell transplant, repeated weekly. Here is the method:
A patient with myelofibroris receives haploidentical peripheral blood stem cell transplant using their child as a donor. The patient receives reduced intensity conditioning with Melphalan (100 mg/m2 on day −6), Fludarabine (25 mg/m2×4 on days −5 to −2) and total body irradiation (TBI) of 200 cGy on day −1. Following infusion of haploidentical stem cells on Day 0, the patient receives post-transplant Cyclophosphamide 50 mg/kg×2 on days+3 and +4 and intravenous hydration with normal saline at rate of 250 ml/h for 24 hours after the completion of cyclophosphamide. Patient develops cytokine release syndrome and neurological complications after infusion of stem cells which are manifested by worsening renal function, oliguria, hypotension, fever, tachycardia, tachypnea, increased oxygen requirement and altered mental status. Patient is administered intravenous fluids and supplement oxygene without significant improvement. […] The dose of Ecoluzimab is repeated at weekly interval depending on the discretion of the physician.

B1: CD33-AMR: antigen masking receptor targeting CD33 expressed in CD34+ stem cells by lentiviral gene transfer (protein)
chain: MALPVTALLLPLALLLHAARPDEIVLTQSPGSLAVSPGERVTMSCKSSQSVFFSSSQKNYLAWYQQIPGQSPRLLIYWASTRESGVPDRFTGSGSGTDFTLTISSVQPEDLAIYYCHQYLSSRTFGQGTKLEIKRGGGGSGGGGSGGGGSQVQLQQPGAEVVKPGASVKMSCKASGYTFTSYYIHWIKQTPGQGLEWVGVIYPGNDDISYNQKFQGKATLTADKSSTTAYMQLSSLTSEDSAVYYCAREVRLRYFDVWGQGTTVTVSSTRAKPTTTPAPRPPTPAPTIASQPLSLRPEACRPAAGGAVHTRGLDFACDIYIWAPLAGTCGVLLLSLVITLYCKRGRKK
Turning to B1, the “residual cells after CD33 CAR-T treatment in vitro” value in assay [1] was “significant number of residual cells remaining”. The “B cells (CD 19+), CD3+ T cells and non-lymphoid cells in peripheral blood versus control” value in assay [2] is recorded as “no significant difference”. The “myeloid cells in AMR HSPC-engrafted mice after CD33 CAR-T” value in assay [3] (assessed after 4 weeks) was “sustained”. In addition, the “human progenitor cells after CD33 CAR-T treatment compared to controls” value in assay [3] (mouse, in vivo) is on record as “significantly increased”.

B2: SEQ ID NO: 12233: hu-mROO5-1 based CD19 double chain SIR, co-expressing PAC (protein)
chain: MALPVTALLLPLALLLHAARPDIQMTQSPSSLSASVGDRVTITCKASDHINNWLAWYQQKPGQAPKLLIYGATTLETGVPSRFSGSGSGTDYTLTISSLQPEDFATYYCQQSWNTPWTFGQGTKLEIKRLEDLKNVFPPEVAVFEPSKAEIAHTQKATLVCLATGFYPDHVELSWWVNGKEVHSGVCTDPQPLKEQPALNDSRYCLSSRLRVSATFWQNPRNHFRCQVQFYGLSENDEWTQDRAKPVTQIVSAEAWGRADCGITSASYHQGVLSATILYEILLGKATLYAVLVSALVLMAMVKRKDSRGRAKRSGSGATNFSLLKQAGDVEENPGPTSMDWIWRILFLVGAATGAHSFEQVQLQQPGAELVKPGASVKMSCKASGYAFSSYWINWMKQKPGQGLEWIGQIYPGDGDTNYNGKFKGRATLTADTSSSTAYMQLSSLTSEDSAVYFCARSITTVVGCAMDYWGQGTSVTVSSTRIQNPDPAVYQLRDSKSSDKSVCLFTDFDSQTNVSQSKDSDVYITDKCVLDMRSMDFKSNSAVAWSNKSDFACANAFNNSIIPEDTFFPSSDVPCDVKLVEKSFETDTNLNFQNLSVIGFRILLLKVAGFNLLMTLRLWSSRAKRSGSGVKQTLNFDLLKLAGDVESNPGPSRGHMTEYKPTVRLATRDDVPRAVRTLAAAFADYPATRHTVDPDRHIERVTELQELFLTRVGLDIGKVWVADDGAAVAVWTTPESVEAGAVFAEIGPRMAELSGSRLAAQQQMEGLLAPHRPKEPAWFLATVGVSPDHQGKGLGSAVVLPGVEAAERAGVPAFLETSAPRNLPFYERLGFTVTADVEVPEGPRTWCMTRKPGA
Turning to B2, the “FMC63 binding to transduced RAJI cells (CD19 surface expression)” value in assay [4] was “no decrease”.

B3: Ecoluzimab: C5-Inhibitor Eculizumab (antibody, chains of the INN, looked up)
heavy: QVQLVQSGAEVKKPGASVKVSCKASGYIFSNYWIQWVRQAPGQGLEWMGEILPGSGSTEYTENFKDRVTMTRDTSTSTVYMELSSLRSEDTAVYYCARYFFGSSPNWYFDVWGQGTLVTVSSASTKGPSVFPLAPCSRSTSESTAALGCLVKDYFPEPVTVSWNSGALTSGVHTFPAVLQSSGLYSLSSVVTVPSSNFGTQTYTCNVDHKPSNTKVDKTVERKCCVECPPCPAPPVAGPSVFLFPPKPKDTLMISRTPEVTCVVVDVSQEDPEVQFNWYVDGVEVHNAKTKPREEQFNSTYRVVSVLTVLHQDWLNGKEYKCKVSNKGLPSSIEKTISKAKGQPREPQVYTLPPSQEEMTKNQVSLTCLVKGFYPSDIAVEWESNGQPENNYKTTPPVLDSDGSFFLYSRLTVDKSRWQEGNVFSCSVMHEALHNHYTQKSLSLSLG
light: DIQMTQSPSSLSASVGDRVTITCGASENIYGALNWYQQKPGKAPKLLIYGATNLADGVPSRFSGSGSGTDFTLTISSLQPEDFATYYCQNVLNTPLTFGQGTKVEIKRTVAAPSVFIFPPSDEQLKSGTASVVCLLNNFYPREAKVQWKVDNALQSGNSQESVTEQDSKDSTYSLSSTLTLSKADYEKHKVYACEVTHQGLSSPVTKSFNRGEC
Consider B3, for which, in assay [5], the mental function result is reported as “gradual improvement in mental function”.

Source of the values: patent US20220135678A1, “METHODS AND COMPOSITIONS TO IMPROVE THE SAFETY AND EFFICACY OF CELLULAR THERAPIES” (University of Southern California, priority 2019, published 2022).
